Target: T1, Caspase-1 (Homo sapiens) (UniProt P29466)
T1 sequence (whole entry): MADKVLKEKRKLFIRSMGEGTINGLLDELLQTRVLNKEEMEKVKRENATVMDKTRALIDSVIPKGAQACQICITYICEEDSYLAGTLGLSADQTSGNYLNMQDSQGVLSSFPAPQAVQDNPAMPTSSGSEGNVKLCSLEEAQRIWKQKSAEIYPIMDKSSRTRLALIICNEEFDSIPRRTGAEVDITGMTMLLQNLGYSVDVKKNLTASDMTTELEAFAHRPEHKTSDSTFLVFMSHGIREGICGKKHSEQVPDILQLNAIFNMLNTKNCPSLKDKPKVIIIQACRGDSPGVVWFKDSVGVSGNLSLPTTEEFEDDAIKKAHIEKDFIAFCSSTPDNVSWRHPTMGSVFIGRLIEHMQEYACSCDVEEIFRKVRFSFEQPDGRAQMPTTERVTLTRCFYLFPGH
Experiment: Inhibitory activity against IL-1 beta converting enzyme was determined

Row | K obs / 1 [M⁻¹ s⁻¹] | SMILES
1 | 407000 | CC(C)[C@H](NC(=O)OCc1ccccc1)C(=O)N[C@@H](C)C(=O)N[C@@H](CC(=O)O)C(=O)COC(=O)c1c(Cl)cccc1Cl
2 | 252000 | CC(C)[C@H](NC(=O)OCc1ccccc1)C(=O)N[C@@H](C)C(=O)N[C@@H](CC(=O)O)C(=O)COC1=C(Cc2ccccc2)C(=O)OC1
